scFv variants of Ab-14 (light chain) against a SARS-CoV-2 spike peptide

Target: peptide PDVDLGDISGINAS, taken from heptad repeat 2 (HR2) of SARS-CoV-2 spike.

Each scFv is VH, the linker GGGGSGGGGSGGGGS, VL, as in the parent Ab-14, and differs from it in the CDRs of the light chain only.
VH: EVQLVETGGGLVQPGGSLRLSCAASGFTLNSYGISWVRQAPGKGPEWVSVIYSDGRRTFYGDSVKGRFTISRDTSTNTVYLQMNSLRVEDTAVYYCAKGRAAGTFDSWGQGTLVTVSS
VL: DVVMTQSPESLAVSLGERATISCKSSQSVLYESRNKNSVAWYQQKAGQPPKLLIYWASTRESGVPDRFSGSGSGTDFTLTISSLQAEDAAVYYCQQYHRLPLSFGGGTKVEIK

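The starting antibody came from a phage panning campaign against this peptide. This is the validation round: designs drawn from the data on random variants, tested in the same kind of assay. Group labels follow the data file (Ctrl: baseline library sampled from a position-specific scoring matrix, with some repeated check sequences; Rand: our label for a block that the file lists under HC and that is probably the random mutants of the ten best first-round binders; GP: Gaussian process model; HC: hill climbing; Gen: genetic algorithm; Gibbs: Gibbs sampling; a sequence that several methods proposed may carry one label only). In AlphaSeq, yeast of one mating type display the scFv and yeast of the other type display the target. The frequency of each diploid, read from paired DNA barcodes, reflects how well the two displayed proteins bind. A regression on co-assayed BCL2-family reference pairs converts the normalised counts of each replicate to an apparent Kd. The assay was run in six technical replicates.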

Variants are written as CDR1, CDR2 and CDR3 of the light chain (limits as in the source). Parent: KSSQSVLYESRNKNSVA, WASTRES, QQYHRLPLS.
Variants here have at most six changes.
Values are apparent Kd, the geometric mean of the replicates that gave a signal; lower means stronger binding.
A pair that was not seen in any replicate is written "nd"; this usually means weak binding, but a binder can also be missed.
As a blank, each scFv also met three strains without target: over all light chain designs, 4% of these pairings were detected, typically at 430 nM and seldom below 38 nM. The control count says in how many pairings with the empty strains this scFv gave a signal.
The range of this assay differs from that of the first round, and the authors advise against merging the two.
The authors' rule: three or more of the six replicates give a measured affinity, fewer mean a poor binder.

With HQSQSVLYESRNKNSVA / NGSTREQ / QQYHRLPLS [GP_HC] the result was 1.4 nM (6 of 6 replicates; controls 3 of 18). Variant KSSISKLYESGNKNSVA / EASTRES / QQYHRLPLS [GP_HC] showed 1.8 nM (6 of 6 replicates; controls 0 of 18). Variant KSSQSVLYESRNYNSVA / WASTRES / QQYHRLPLS [Ctrl] gave 150 nM (2 of 6 replicates; controls 0 of 18). With KLSQSVLYESRNKNSVA / SASTRES / QQYCFLPLS [Ctrl] the result was 7.9 nM (5 of 6 replicates; controls 0 of 18). Variant RASQSVLYESRNKNSVA / WASTRES / QQYKRLALS [Ctrl] showed nd (0 of 6 replicates; controls 0 of 18). With KSSQSVEYESRNKNSVA / EASTRES / QQYHRLPLS [Ctrl] the result was 1.7 nM (6 of 6 replicates; controls 1 of 18). For KFSQSVLYESRTQNSVA / NASTRES / QQYHRLPLS [GP_HC], the assay gave 530 pM (6 of 6 replicates; controls 1 of 18). Variant KVQQSGLYESRNKNSVA / NASTRES / QQYHRLPLS [GP_Gen] showed 740 pM (6 of 6 replicates; controls 1 of 18).

Variant KAQQSDLYESRNKNSVA / SASTRSS / QQYHRLPLS [GP_Gibbs] gave 910 pM (6 of 6 replicates; controls 1 of 18). With KSSYSVLPESRNANSVA / WASTRES / QQYHRLPLS [Ctrl] the result was 17 µM (1 of 6 replicates; controls 1 of 18). For KQSQSVLYESRNENSVA / DASTRES / QQGHRLPLS [Rand], the assay gave 64 nM (1 of 6 replicates; controls 1 of 18). Variant KLPQSTLYESRNKNSVA / NASTREQ / QQYHRLPLS [GP_Gen] showed 1.2 nM (6 of 6 replicates; controls 1 of 18). Variant KVSQSVLYENRNKNSVA / NASTRES / QQYHRLPLS [GP_Gen] gave 290 pM (6 of 6 replicates; controls 0 of 18). For KISQMSLYESRNKNSVA / WAQTRES / QQYHRLPLS [Ctrl], the assay gave 14 nM (6 of 6 replicates; controls 0 of 18). For KVSQSWLKESRNKNSVA / EASTRES / QQYHRLPLS [GP_HC], the assay gave 260 pM (6 of 6 replicates; controls 1 of 18). With KSSQSVGYESRYKNSVA / WASTRES / QQYHRLPLS [Ctrl] the result was 78 nM (6 of 6 replicates; controls 1 of 18).

For KLSQSMWYESRNKNSVA / NASTRES / QQYHRLPLS [GP_Gen], the assay gave 510 pM (6 of 6 replicates; controls 2 of 18). With KLPQSELYESRNKNSVA / NASTRED / QQYHRLPLS [GP_Gen] the result was 460 pM (6 of 6 replicates; controls 1 of 18). Variant KQSVSVLYESRNKNSVA / WASTRES / QQYHRDPLS [Ctrl] gave 58 nM (1 of 6 replicates; controls 0 of 18). Variant KLSQSWLYEDRPKNSVA / NASTRMS / QQYHRLPLS [GP_Gibbs] showed 1.2 nM (6 of 6 replicates; controls 3 of 18). Variant KLYQSVLYESRNKNNVA / NASTRES / QQYHRLPLS [GP_Gen] gave 390 pM (6 of 6 replicates; controls 0 of 18). Variant KSSISYLGEIRNKNSVA / EASTRES / QQYHRLPLS [GP_HC] showed 810 pM (6 of 6 replicates; controls 0 of 18). Variant KLQQSWLYESRNKNSVA / NASTRCD / QQYHRLPLS [GP_Gen] showed 1.0 nM (6 of 6 replicates; controls 3 of 18). Variant KLQQSWGYESRNKNSVA / HASTRES / QQYHRLPLS [GP_Gen] gave 1.0 nM (6 of 6 replicates; controls 2 of 18).

Variant KLSQSVMYEDRNKNSVA / NASTRES / QQYHRLPLS [GP_Gen] gave 38 nM (6 of 6 replicates; controls 1 of 18). For HSSPSVFYESRNKNSVA / NASTREE / QDYHRLPLS [GP_HC], the assay gave 2.8 nM (6 of 6 replicates; controls 1 of 18). With KSSQMFLYESRNKNSVA / GASTRMS / QQYHRLTLS [Rand] the result was nd (0 of 6 replicates; controls 0 of 18). With KLHQSVLYESRNKNSVA / NASTRES / QQYHRLPLS [GP_Gen] the result was 610 pM (6 of 6 replicates; controls 1 of 18). Variant KISQSVLYESRNKNSVA / MASTRES / QQYHRLPLP [Ctrl] showed nd (0 of 6 replicates; controls 0 of 18). Variant KLPQSVLYESRNKNSVA / NASTRED / QSYHRLPLS [GP_HC] showed 900 pM (6 of 6 replicates; controls 0 of 18). Variant KVSQSVLYEDRNKNSVA / QASTRES / QQYHRLPLS [GP_Gen] showed 470 pM (6 of 6 replicates; controls 2 of 18). Variant KSSQSVLYESRNKNNVA / WASTRES / QQYHRLWLS [Ctrl] showed nd (0 of 6 replicates; controls 0 of 18).

With KSGQGVNYESRNSNSVA / GASTRES / QQYHRLPLS [Rand] the result was 1.5 nM (6 of 6 replicates; controls 0 of 18). Variant KLQQSWLYESRNKNSVA / HASTRMS / QQYHRLPLS [GP_Gen] gave 1.5 nM (6 of 6 replicates; controls 4 of 18). For KLPQSVLYESRNKNSVA / NASQREV / QQYHRLPLS [GP_Gen], the assay gave 400 pM (6 of 6 replicates; controls 0 of 18).

Excerpt, the first 5 entries:

For HQSQSVLYESRNKNSVA / NGSTREQ / QQYHRLPLS [GP_HC], the assay gave 1.4 nM (6 of 6 replicates; controls 3 of 18).
For KSSISKLYESGNKNSVA / EASTRES / QQYHRLPLS [GP_HC], the assay gave 1.8 nM (6 of 6 replicates; controls 0 of 18).
For KSSQSVLYESRNYNSVA / WASTRES / QQYHRLPLS [Ctrl], the assay gave 150 nM (2 of 6 replicates; controls 0 of 18).
For KLSQSVLYESRNKNSVA / SASTRES / QQYCFLPLS [Ctrl], the assay gave 7.9 nM (5 of 6 replicates; controls 0 of 18).
For RASQSVLYESRNKNSVA / WASTRES / QQYKRLALS [Ctrl], the assay gave nd (0 of 6 replicates; controls 0 of 18).

Source: Li et al. 2023 (doi:10.1038/s41467-023-39022-2), MIT Lincoln Laboratory and A-Alpha Bio; data file from the FLAb repository.